Test: Test B: Cytotoxicity Assay
Conditions: human

SMILES | CC50 at 5 days
Cn1nc(NS(C)(=O)=O)c2c(Cl)ccc(-c3ccc(C#CC(C)(C)O)nc3[C@H](Cc3cc(F)cc(F)c3)NC(=O)Cn3nc(C(F)(F)F)c4c3C(F)(F)[C@@H]3C[C@H]43)c21 [Compound B, reference compound] | 14.5 µM
Cn1nc(NS(C)(=O)=O)c2c(Cl)ccc(-c3ccc(C#CC(C)(C)O)nc3[C@H](Cc3cc(F)cc(F)c3)NC(=O)Cn3nc(C(F)F)c4c3C(F)(F)[C@@H]3C[C@H]43)c21 [Compound A, reference compound] | 21.8 µM
